≈ marks a conversion by molar mass, not a printed value.
Experiment: Water solubility at 25° C.
Assay type: physicochemical
Details: first liquid oily compounds

For `CC1COCc2cc3c(cc21)C(C)(C)C(C)C3(C)C` (stereo not shown) [Galoxolide], the “Solubility in H2O” value was 0.294 µg/mL (≈ 1.14 µM).
